These results are taken from paper PMC12109561, “LPS2336, a New TREK-1 Channel Activator Identified by High Throughput Screening” (Biomolecules, 2025).

Chains of the proteins cited; added tags and fusions are not shown. Lines headed by an entry give the natural chain unless they say otherwise; changes in a name come on top.
UniProt O95069: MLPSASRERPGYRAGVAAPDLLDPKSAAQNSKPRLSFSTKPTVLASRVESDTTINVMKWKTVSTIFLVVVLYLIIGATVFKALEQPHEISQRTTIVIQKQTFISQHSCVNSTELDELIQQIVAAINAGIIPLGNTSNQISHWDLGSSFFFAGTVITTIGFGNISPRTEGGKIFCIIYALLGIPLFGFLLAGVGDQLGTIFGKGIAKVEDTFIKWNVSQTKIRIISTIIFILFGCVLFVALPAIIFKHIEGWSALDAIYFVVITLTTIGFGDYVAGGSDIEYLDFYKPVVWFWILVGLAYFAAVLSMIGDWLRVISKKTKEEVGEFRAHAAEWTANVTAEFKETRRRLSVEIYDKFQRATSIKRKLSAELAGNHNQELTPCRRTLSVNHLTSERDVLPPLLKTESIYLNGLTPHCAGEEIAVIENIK

For series [1], the target named is T1, hTREK-1 (Homo sapiens, UniProt O95069). Briefly: Whole cell patch clamp on HEK-hTREK-1 cells. It is filed as cell-based. The conditions noted are these: 50 µM, vs vehicle. A general note: Patch clamp records ionic current or voltage across a cell membrane.
A short description of series [2]: Aqueous solubility (as observed).
For series [3], the target named is T1, hTREK-1. Briefly: Thallium flux assay (FluxOR II Green) on HEK-hTREK-1 cells, incl. high throughput screening. The settings on record: 25 µM.

Regarding `COc1ccc(C2Nc3ccccc3C(=O)N2c2ccccc2)cc1O` (stereo not shown), the “increase of mean current density recorded at 0 mV” value on hTREK-1 [1] turned out to be 6.01 fold. Also, in series [2], the “solubility in water” value is recorded as “poorly soluble in water”. Further, the “times over the positivity threshold” value on hTREK-1 [3] (HTS triplicates, threshold Z score 3) is given as 1/3. Moreover, the “average Z score in high throughput screening” value at hTREK-1 [3] (triplicates, relative to vehicle-treated wells, hit threshold 3) is 2.68 ± 0.49.
